Experimental data as given in patent US12544366B2, “Combination of endocannabinoid and mTOR inhibitors in the treatment of neuroendocrine neoplasms” (HADASIT MEDICAL RESEARCH SERVICES AND DEVELOPMENT LTD., priority 2022, dated 2026).

System: lung NCI-H727 tumor xenograft
Assay: Subcutaneous NEN xenograft tumor model
Details: day 23; IP injections; control PBS reached 400%

## Cc1c(C(=O)NN2CCCCC2)nn(-c2ccc(Cl)cc2Cl)c1-c1ccc(I)cc1 [AM251]
  tumor volume versus initial tumor size (100% at baseline): 250%
